From PubChem BioAssay AID1948 (National Center for Advancing Translational Sciences (NCATS), 2009)
The entries are a selection whose mix differs from that of the whole data set. Activity calls are given as the source filed them. Calls follow the shape of the dose curve; as a rule, active = well fitted activation curve with a large enough effect; inconclusive = small, poorly fitted or top-dose-only effect; inactive = no such curve, though single readings can be large or run the other way.

Assay: qHTS Assay for Compounds that Induce Erasure of Genomic Imprints;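 also: 0% = negative control wells on the plate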
Conditions: mouse ES Peg3-LacZ reporter, beta-gal luminescence, 40 h; at 60.7 µM (top of the series)

Row | Compound | activity change, positive = activation
1 | Cc1cc([N+](=O)[O-])cc([N+](=O)[O-])c1O | inactive: -19.4%
